Laboratory results taken from ChEMBL document CHEMBL4229332, “Novel multi-target azinesulfonamides of cyclic amine derivatives as potential antipsychotics with pro-social and pro-cognitive effects” (Eur J Med Chem, 2018).

Amino acid sequences for entries named in this document (tags omitted). A change or cut given only in a name is not applied to a line headed by its entry.
UniProt P28335: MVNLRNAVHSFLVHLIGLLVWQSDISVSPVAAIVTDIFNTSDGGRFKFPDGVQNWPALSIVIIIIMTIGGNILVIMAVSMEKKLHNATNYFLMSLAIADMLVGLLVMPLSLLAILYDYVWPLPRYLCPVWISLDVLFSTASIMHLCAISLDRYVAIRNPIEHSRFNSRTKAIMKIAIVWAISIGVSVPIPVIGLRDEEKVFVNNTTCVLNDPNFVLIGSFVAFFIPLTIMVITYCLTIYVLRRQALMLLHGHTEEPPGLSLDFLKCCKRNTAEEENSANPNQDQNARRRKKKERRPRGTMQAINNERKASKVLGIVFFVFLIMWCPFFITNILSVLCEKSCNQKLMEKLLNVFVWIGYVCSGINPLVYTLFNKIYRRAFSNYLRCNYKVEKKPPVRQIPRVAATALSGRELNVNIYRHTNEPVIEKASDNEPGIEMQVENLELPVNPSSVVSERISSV

Target: 5-hydroxytryptamine receptor 2C (Homo sapiens) (UniProt P28335)
Experiment: Antagonist activity at human 5-HT2CR expressed in HEK293 cells assessed as inhibition of serotonin-induced IP1 accumulation after 30 mins by HTRF method
Type: functional, cell-based

- Kb: 2.3 nM
SMILES: Cn1ccc2cc3c(cc21)CCN3C(=O)Nc1cccnc1
